Reference: ChEMBL document CHEMBL3785084, “Rational modification of the lead molecule: Enhancement in the anticancer and dihydrofolate reductase inhibitory activity” (Bioorg Med Chem Lett, 2016)

Assays:
NCI-H322M [1] = details: Homo sapiens, 48 h, read-out: Activity
NCI-H322M [2] = experiment: cells; details: Homo sapiens, 48 h; for CC50: read-out: LC50

| Compound | growth at 10 µM (NCI-H322M [1]) [%] | GI50 (NCI-H322M [2]) [µM] | TGI (NCI-H322M [2]) [µM] | CC50 (NCI-H322M [2]) [µM] |
| --- | --- | --- | --- | --- |
| COc1cc(/C=C2\C(=O)Nc3ccccc32)cc(OC)c1O | 96 | 8.3 | 40.7 | > 100 |
| CN1C(=O)C(=Cc2cn(CC(O)Cn3cc(C=C4C(=O)N(C)C(=O)N(C)C4=O)c4ccccc43)c3ccccc23)C(=O)N(C)C1=O | 78 |  |  |  |
| CC1=NN(c2cccc(Cl)c2)C(=O)/C1=C\c1cn(CC(O)Cn2cc(/C=C3\C(=O)N(c4cccc(Cl)c4)N=C3C)c3ccccc32)c2ccccc12 | 99.1 |  |  |  |
| O=C1NC(=O)C(=Cc2cn(CC(O)Cn3cc(C=C4C(=O)NC(=O)NC4=O)c4ccccc43)c3ccccc23)C(=O)N1 | 93.5 |  |  |  |
| O=C1Nc2ccccc2/C1=C/c1cn(CC(O)Cn2cc(/C=C3\C(=O)Nc4ccccc43)c3ccccc32)c2ccccc12 (stereo unspecified) | -39.1 | 1.8 | 5.6 | 25.6 |
